Data reported in PubChem BioAssay AID1625 (Sanford-Burnham Center for Chemical Genomics, 2009).
The list shows a part of the results, in another mix than the full data. Calls of active or inactive are those of the source.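 Rule for the calls: active = z-score above 3 at 5 µM with at least 500 cells counted in the well; inconclusive = wells under 500 cells, flagged as cytotoxic or low count; inactive = the rest.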

Experiment: insulin promoter activators in MIN6 cells, imaging, high-content screening, mouse beta cells (AID 1625)
Conditions: MIN6 insulin promoter-GFP reporter, at 5 µM, stronger effect = higher value

Structure (SMILES) | z-score
CN(C(=O)Cc1ccc(Cl)c(Cl)c1)[C@@H]1CCCC[C@H]1N1CCCC1 | inactive: -0.01
CC(C)/C=N\N=C(\N)N[N+](=O)[O-] | inactive: -0.61
O=[As](O)(c1ccccc1Br)c1ccccc1Br | inactive: 0.05
CC(C)(C)C(=O)NC(Sc1ncccn1)C(Cl)(Cl)Cl (stereo unspecified) | inactive: 0.35
Clc1n[nH]nc1-c1nn[nH][15n]1 | inactive: 0.99
O=[N+]([O-])c1cc([N+](=O)[O-])c(-n2nnc3ccccc32)c([N+](=O)[O-])c1 | inactive: -0.06
O=P1(Nc2ccccn2)COc2ccccc2OC1 | inactive: 0.03
CCOP(=O)(Nc1ccc(C)cn1)OCC | inactive: -0.27
CCCOc1ccc(NP(C)(=O)Oc2ccc(Cl)cc2)cc1 (stereo unspecified) | inactive: 0.92
CP(=O)(Nc1ccc(SC(F)(F)F)cc1)Oc1ccccc1 (stereo unspecified) | inactive: 0.59
Nc1cccc([As](=O)(O)c2ccccc2)c1 | inactive: -0.21
O=[As](O)(c1cccs1)c1cccs1 | inactive: 0.56
Cc1ccc(OCC(=O)OC2CN3CCC2CC3)cc1 (stereo unspecified) | inactive: 1.15
O=P1(Nc2ccc(Br)cn2)COc2ccccc2OC1 | inactive: 0.16
CN1CCCCC1COC(=O)C1(O)c2ccccc2CCc2ccccc21 (stereo unspecified) | inactive: 0.41
COc1ccccc1OP(C)(=O)Nc1c(C)cccc1C (stereo unspecified) | inactive: -0.7
O=P1(Nc2ncccn2)COc2ccccc2OC1 | inactive: 2.07
CCOC(=O)C(CC)C1=NC(C)(C)Cc2ccccc21.O=[N+]([O-])c1cc([N+](=O)[O-])c(O)c([N+](=O)[O-])c1 (stereo unspecified) | inactive: -0.03
CN(C)C1(CNC(=O)c2ccc(S(C)(=O)=O)cc2)CCCCC1 | inactive: 0.6
O=[N+]([O-])c1cc([N+](=O)[O-])c(Nc2nnnn2CCO)c([N+](=O)[O-])c1 | inactive: -0.12
O=C(/C=C/c1ccccc1)OC1CN2CCC1CC2 (stereo unspecified) | inactive: 0.76
CC1CCC(C(C)C)C(OP(=O)(Nc2ccccn2)c2ccccc2)C1 (stereo unspecified) | inactive: 0.16
Cc1nn(-c2ccccc2)c2c1P(=O)(N1CCOCC1)N(C)C(c1ccccc1)=N2 (stereo unspecified) | inactive: -1.2
COc1cc(C2NCCC3(OCCO3)C2(C)C)cc(OC)c1OC.O=[N+]([O-])c1cc([N+](=O)[O-])c(O)c([N+](=O)[O-])c1 (stereo unspecified) | inactive: -0.31
CN(C(=O)Cc1ccccc1)[C@@H]1CC[C@]2(CCCO2)C[C@H]1N1CCCC1 | inactive: -0.36
CCOP1(=S)c2c(C)nn(CCC#N)c2N=C(c2ccc(F)cc2)N1C (stereo unspecified) | inactive: -0.46

Structure (SMILES) | z-score
CC1=NCCc2c1[nH]c1ccccc21.O=[N+]([O-])c1cc([N+](=O)[O-])c(O)c([N+](=O)[O-])c1 | inactive: 0.04
O=[N+]([O-])c1ccc2c(c1)nnn2O | inactive: 0.08
O=C(O)COc1ccc([As](=O)(O)O)cc1[N+](=O)[O-] | inactive: -1.14
Nc1ccccc1[As](=O)(O)c1ccccc1 | inactive: 0.18
O=P(Nc1nccs1)(c1ccccc1)c1nc2ccccc2s1 (stereo unspecified) | inactive: -0.45
O=C(O)c1cccc(Nc2c([N+](=O)[O-])cc([N+](=O)[O-])cc2[N+](=O)[O-])c1 | inactive: 0.41
CCOP1(=S)c2c(C)nn(CCC#N)c2N=C(c2ccccc2F)N1C (stereo unspecified) | inactive: -0.88
CS(=O)(=O)c1cc([N+](=O)[O-])c2no[n+]([O-])c2c1 | inactive: 1.11
CCOP(=O)(Nc1cccc2ccccc12)OCC | inactive: 0.2
Nc1cccc2c([As](=O)(O)O)cccc12 | inactive: -0.09
Cc1ccc(NCCc2c([N+](=O)[O-])cc([N+](=O)[O-])cc2[N+](=O)[O-])cc1 | inactive: -0.2
CP(=O)(Nc1cccc(Br)c1)Oc1ccccc1 (stereo unspecified) | active: 3.18
Cc1ccc(C)c(NP(C)(=O)Oc2ccccc2)c1 (stereo unspecified) | inactive: -0.06
CCCOP(=S)(Nc1nc(N)cc(=O)[nH]1)OCCC | inactive: 1.75
Cc1cc(C)cc(OP(C)(=O)Nc2ccc(C)cc2C)c1 (stereo unspecified) | inactive: 0.51
Cc1cccc(OCC(=O)OC2CN3CCC2CC3)c1 (stereo unspecified) | inactive: -0.37
O=[As](O)(c1cccc(O)c1)c1cccc(O)c1 | inactive: 0.8
CCOC(=O)c1ccc(NP(C)(=O)Oc2cc(C)cc(C)c2)cc1 (stereo unspecified) | inactive: -0.4
O=C(OC1CN2CCC1CC2)c1ccc(Cl)cc1 (stereo unspecified) | inactive: 1.1
COc1ccccc1OP(C)(=O)Nc1cccc(Br)c1 (stereo unspecified) | inactive: -0.03
O=[As](O)(O)c1cccnc1 | inactive: -0.11
COc1cc(C(=O)NCC2(N3CCOCC3)CCCCC2)cc(Cl)c1OC(C)C | inactive: 0.46
COc1ccc(N/C(=N/P(=O)(N2CCOCC2)N2CCOCC2)N2CCOCC2)cc1 | inactive: -0.27
COc1cc(I)ccc1[As](=O)(O)O | inactive: -0.14
COc1ccc2nc(NP(=O)(c3ccccc3)c3ccccc3)sc2c1 | inactive: -0.71
Cc1c2c(nc3ccccc13)SC(C(Cl)Cl)C2 (stereo unspecified) | inactive: 0.46

Structure (SMILES) | z-score
CCN(CC)CCCOC(=O)C(O)(c1ccccc1)c1ccccc1 | inactive: 0.03
Cc1cc(=O)[nH]c(N[N+](=O)[O-])n1 | inactive: 0.56
O=C(OC1CN2CCC1CC2)C12CC3CC(CC(C3)C1)C2 (stereo unspecified) | inactive: 0.51
COc1ccc(OP(C)(=O)Nc2cccc(F)c2)cc1 (stereo unspecified) | inactive: 0.46
O=[N+]([O-])c1cc([N+](=O)[O-])c(-c2ccn[nH]2)s1 | inactive: -1.73
CC(C)NC(=O)NP(=O)(Oc1ccccc1)Oc1ccccc1 | inactive: 0.54
COc1ccccc1OP(C)(=O)Nc1cc(Cl)ccc1C (stereo unspecified) | inactive: -0.38
Cc1cc(C)cc(OP(C)(N)=O)c1 (stereo unspecified) | inactive: 0.46
ClCCSc1nnc(-c2cccnc2)o1 | inactive: 0.67
CCOC(=O)c1ccc(NP(C)(=O)Oc2ccccc2)cc1 (stereo unspecified) | inactive: 0.56
CC(C)c1ccc(OP(=O)(Nc2ccccn2)Oc2ccccc2F)cc1 (stereo unspecified) | inactive: 0.39
Cc1ccc(NP(C)(=O)Oc2ccccc2)c(C)c1 (stereo unspecified) | inactive: 1.34
COc1ccccc1OP(C)(=O)Nc1ccc(C)cc1 (stereo unspecified) | inactive: 0.26
Cc1cccc(C)c1OP(C)(N)=O (stereo unspecified) | inactive: 0.62
Cc1ccc(OP(=O)(Nc2ccc([N+](=O)[O-])cn2)Oc2ccc(C)cc2)cc1 | inactive: 0.54
CC(C)(C)c1ccc(OP(C)(=O)Nc2ccc(SC(F)(F)F)cc2)cc1 (stereo unspecified) | inactive: -0.21
O=[N+]([O-])c1ccc2c(c1)C=Nc1ccccc1O2 | inactive: -0.2
Cc1ccc2nc3c(c(C)c2c1)CC(C(Cl)Cl)S3 (stereo unspecified) | inactive: -0.02
C[As](=O)(O)c1cccc(C(=O)O)c1 | inactive: 0.27
O=[As](O)(c1ccc(O)cc1)c1ccccc1O | inactive: -0.01
COc1ccccc1OP(C)(=O)Nc1ccccc1 (stereo unspecified) | inactive: 0.3
Cc1cc(SC(NC=O)C(Cl)(Cl)Cl)ncn1 (stereo unspecified) | inactive: 1.65
O=P(Nc1ccccn1)(c1cccc2ccccc12)c1cccc2ccccc12 | inactive: -0.05
O=[N+]([O-])c1ccc(Nc2ccc(Oc3ccc([N+](=O)[O-])cc3[N+](=O)[O-])cc2)c([N+](=O)[O-])c1 | inactive: -0.43
CP(=O)(Nc1ccccc1Br)Oc1ccccc1 (stereo unspecified) | inactive: 1.01
CP(=S)(Nn1cnnc1)Oc1ccccc1 (stereo unspecified) | inactive: -0.37

Structure (SMILES) | z-score
CCOC(=O)Nc1cccc([As](=O)(O)O)c1 | inactive: -0.38
Cc1cc(SC(NC(=O)c2ccccc2)C(Cl)(Cl)Cl)nc(C(C)C)n1 (stereo unspecified) | inactive: -0.38
CCOC(=O)Nc1ccc([As](=O)(O)O)c(O)c1 | inactive: 0.07
CCC(C)N(CC(C)C)C(=S)SC(NC(C)=O)C(Cl)(Cl)Cl (stereo unspecified) | inactive: 0.23
CP(=O)(Nc1ccccn1)Oc1ccc(Cl)cc1 (stereo unspecified) | inactive: 1.35
CCOP(C)(=S)SCC(=O)NC(C)C(=O)O (stereo unspecified) | inactive: -0.1
CCOC(=O)c1ccc(NP(C)(=O)Oc2ccc(OC)cc2)cc1 (stereo unspecified) | inactive: -0.04
CCOC(=O)c1ccc(NC(=O)C(C)(CCl)SC)cc1 (stereo unspecified) | inactive: 0.17
Cc1cc(C)cc(OP(C)(=O)Nc2ccc(SC(F)(F)F)cc2)c1 (stereo unspecified) | inactive: -0.49
CP(=O)(NC(=O)Nc1ccccc1)Oc1ccccc1 (stereo unspecified) | inactive: -0.26
O=C(COc1ccccc1)OC1CN2CCC1CC2 (stereo unspecified) | inactive: -0.74
CCc1ccc(OP(C)(=O)N2CCN(c3ccc([N+](=O)[O-])cc3)CC2)cc1 (stereo unspecified) | inactive: -0.32
CP(=O)(Oc1ccccc1)OC(c1ccccc1)C(F)(F)F (stereo unspecified) | inactive: -0.23
COP1(=S)c2c(C)nn(CCC#N)c2N=C(c2ccc(F)cc2)N1C (stereo unspecified) | inactive: 0.56
CP(=O)(Nc1ccc(SC(F)(F)F)cc1)Oc1ccc(Cl)cc1 (stereo unspecified) | inactive: -0.89
Cc1cccc(C)c1OP(C)(=O)Nc1ccc(SC(F)(F)F)cc1 (stereo unspecified) | inactive: -0.38
CC1CCN(C(=O)Oc2c(Cl)cc(Cl)c3cccnc23)CC1 | inactive: -0.04
CC(C)=N/N=C(\N)N[N+](=O)[O-] | inactive: 0.05
CN(C)C(=O)c1c([N+](=O)[O-])cc([N+](=O)[O-])cc1[N+](=O)[O-] | inactive: -0.1
CP(=O)(Nc1ccc(Cl)cc1)Oc1ccc(F)cc1 (stereo unspecified) | inactive: -0.33
CCN(/C(=N/P(=O)(N1CCOCC1)N1CCOCC1)N1CCOCC1)c1ccc(OC)cc1 | inactive: 0.2
C[N+]1=C2C=CC=CC=C2SC12C([N+](=O)[O-])=CC([N+](=O)[O-])=C[C-]2[N+](=O)[O-] (stereo unspecified) | inactive: -0.5
COc1ccccc1OP(C)(=O)Nc1ccccc1Br (stereo unspecified) | inactive: -0.14
